# AlphaSeq binding of Ab-14 light chain variants to a spike HR2 peptide

Reference: Li et al. 2023, doi:10.1038/s41467-023-39022-2. File: FLAb, binding data.

Binding partner: SARS-CoV-2 spike HR2 peptide, sequence PDVDLGDISGINAS.

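Designed CDR sequences, proposed from the first random library and measured here. Group labels follow the data file (En: ensemble of fine-tuned language models; GP: Gaussian process model; HC: hill climbing; Gen: genetic algorithm; Gibbs: Gibbs sampling; a sequence that several methods proposed may carry one label only). Affinity was read by AlphaSeq, a pooled yeast mating assay with surface-displayed partners. The frequency of each diploid, read from paired DNA barcodes, reflects how well the two displayed proteins bind. Each replicate has its own calibration line, from reference interactions of the BCL2 family. There are six technical replicates.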

The variants keep the heavy chain, the linker and the frameworks of Ab-14 (scFv order VH, the linker GGGGSGGGGSGGGGS, VL).
VH: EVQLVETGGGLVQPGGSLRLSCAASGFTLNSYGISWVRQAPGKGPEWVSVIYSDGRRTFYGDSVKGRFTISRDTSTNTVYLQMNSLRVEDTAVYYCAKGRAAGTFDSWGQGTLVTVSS
VL: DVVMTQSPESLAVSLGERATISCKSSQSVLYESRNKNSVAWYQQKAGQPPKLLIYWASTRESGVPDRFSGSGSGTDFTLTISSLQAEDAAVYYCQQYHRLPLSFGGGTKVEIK

Each variant is given by its three light chain CDRs, as the data file delimits them; those of the parent are KSSQSVLYESRNKNSVA, WASTRES, QQYHRLPLS. Variants here have more than six changes. Kd is apparent (estimated from mating counts) and averaged on the log scale over replicates with a signal. Smaller is tighter. Where no diploid with the target was found in any replicate, the entry reads "no signal": below detection, most likely a poor binder, though not proof of it. Nonspecific signal, from three strains lacking the peptide, appeared in 4% of pairings of all light chain designs, centred on 430 nM (5% of these signals below 38 nM); values are not corrected for it. The control count says in how many pairings with the empty strains this scFv gave a signal. The parent sequence was in this pool as ten entries: three were never detected, three once, and four in most replicates, with averages from 2.2 nM to 240 nM. The authors averaged sequences with at least three values out of six and counted those with two or fewer as poor binders. The range of this assay differs from that of the first round, and the authors advise against merging the two.

Variant RLLDWAYNLTAKDSNIA | DSDISGS | QQYSHLPLA [En_Gibbs] gave 19 nM (5 of 6 replicates; controls 1 of 18). For MISQLYNMGQFAINSVA | QASLRNE | QQYDRLPLE [En_Gen], the assay gave 57 nM (6 of 6 replicates; controls 0 of 18). With HLGGLMTWEEKNRNSVA | QQETRAK | QQYHHLPLS [En_HC] the result was 3.9 nM (6 of 6 replicates; controls 1 of 18). Variant KFSQGYWYEQRNKNSVA | NASQRES | QQYHRLPLS [GP_Gibbs] showed 3.9 nM (6 of 6 replicates; controls 1 of 18). With HITYGMMVAGRHHSSIA | QAEERAK | QQYDRLPLS [En_Gen] the result was 8.7 nM (6 of 6 replicates; controls 0 of 18).

With TISQVMNTLTREGNNVA | DLAERED | QQYFRLPLS [En_Gen] the result was 3.7 nM (6 of 6 replicates; controls 0 of 18). With TIGQSVHETSRVKNSVA | HASTRED | QQYDRLPLS [En_HC] the result was 2.6 nM (6 of 6 replicates; controls 1 of 18). With TLSQVQGMEMHNKDNVA | DLSTRGN | QQYDRLPLS [En_HC] the result was 5.5 nM (6 of 6 replicates; controls 0 of 18). Variant VLSDTIENQYDEADNIA | DKTETSE | QQYARLPLS [En_Gibbs] gave 15 nM (6 of 6 replicates; controls 0 of 18). With KLAQGIYEPWRHSHNIA | EASHVCD | QQYERLPLE [En_Gibbs] the result was 31 nM (6 of 6 replicates; controls 1 of 18).

Variant KLAQSVNYLSRVMNSVA | DNSTRES | QQYFRLPLS [En_HC] gave 700 pM (6 of 6 replicates; controls 3 of 18). With QIDDLDEDSQAEVSQVA | NAAEAIV | QQYQRLPLS [En_Gibbs] the result was no signal (0 of 6 replicates; controls 1 of 18). For SLIPFENQIMKDLNNIA | NTQVRAS | QQYMRLPFM [En_Gibbs], the assay gave 1.4 nM (6 of 6 replicates; controls 2 of 18). Variant MLSQVHDYNGYRGNSVA | NVDERNT | QQYKQLPLI [En_Gibbs] showed 1.5 nM (6 of 6 replicates; controls 0 of 18). Variant QMKMSLLQGILIKDSIA | SSNLREM | QQYEHLPLI [En_Gibbs] showed 93 nM (3 of 6 replicates; controls 0 of 18).

With MISNLMNMGQFAINSVA | QASIRNE | QQYDRLPLA [En_Gen] the result was 14 nM (6 of 6 replicates; controls 0 of 18). With MISQSFLIGMKAKNSVA | QTSTRES | QQYDRLPLA [En_HC] the result was 4.3 nM (6 of 6 replicates; controls 1 of 18). For KLTQVSGHLQVEKNNVA | EMETREN | QQYDRLPLS [En_Gen], the assay gave 5.2 nM (6 of 6 replicates; controls 0 of 18). With NMRNECYQYENYGNSIA | HANMRHN | QQYSRLPFT [En_Gibbs] the result was 4.4 nM (6 of 6 replicates; controls 2 of 18). For MISQVMNMLTREGNNVA | DLTEREK | QQYFRLPLS [En_Gen], the assay gave 1.1 µM (4 of 6 replicates; controls 1 of 18).

Variant KLIQSVAMVSRNKDSIA | DNSTRES | QQYHRLPLS [En_HC] showed 15 nM (5 of 6 replicates; controls 0 of 18). With HLELEEMQMMKDHNSIA | DTESKTR | QQYFRLPIS [En_Gibbs] the result was 3.1 nM (6 of 6 replicates; controls 1 of 18). Variant SLAYTQHFGQTGGKAVA | EVAMRCQ | QQYFRLPLG [En_Gibbs] showed 5.8 nM (6 of 6 replicates; controls 0 of 18). For KITGMWTFENRNRNNIA | EESTRED | QSYHRLPLS [En_HC], the assay gave 1.0 nM (6 of 6 replicates; controls 1 of 18). Variant KMPQSVLYEQRNSNSVA | NGSTRFS | QQYHRLPLS [GP_Gibbs] showed 590 pM (6 of 6 replicates; controls 0 of 18).

For FIEGFGEDSARNSKNIA | SKELRQV | QQYDRLPLS [En_Gibbs], the assay gave 4.5 nM (6 of 6 replicates; controls 0 of 18). With MFSQLVYTGTRTKNAVA | QASTREN | QQYHRLPLS [En_HC] the result was 350 nM (1 of 6 replicates; controls 0 of 18). Variant TIGGTLMYGVMNRSNVA | EVSERLN | QQYDRLPLM [En_Gen] showed 350 nM (5 of 6 replicates; controls 2 of 18). Variant QLEVFPLQAGSTYAAIA | DASHSTP | QQYARLPLM [En_Gibbs] gave 6.6 nM (6 of 6 replicates; controls 0 of 18). Variant SITQLVAYGSRNKNSVA | QMSTREN | QQYDRLPLA [En_HC] showed 6.3 nM (6 of 6 replicates; controls 0 of 18).

For KFQYSELYEERNQNSVA | GASQRLS | QQYHRLPLS [GP_Gibbs], the assay gave 1.6 nM (6 of 6 replicates; controls 0 of 18).

The opening 3 entries, copied out:

CDR-L1	CDR-L2	CDR-L3	group	Kd	detected	signal with controls
RLLDWAYNLTAKDSNIA	DSDISGS	QQYSHLPLA	En_Gibbs	19 nM	5/6	1/18
MISQLYNMGQFAINSVA	QASLRNE	QQYDRLPLE	En_Gen	57 nM	6/6	0/18
HLGGLMTWEEKNRNSVA	QQETRAK	QQYHHLPLS	En_HC	3.9 nM	6/6	1/18